Our source for the Ki and IC50 values is PMC8467340, “Fine Tuning of Cholinesterase and Glutathione-S-Transferase Activities by Organoruthenium(II) Complexes” (Biomedicines, 2021).

By UniProt entry, the sequences of proteins in these tests, tags left out. Residues count along the entry.
UniProt O42275, 24-633: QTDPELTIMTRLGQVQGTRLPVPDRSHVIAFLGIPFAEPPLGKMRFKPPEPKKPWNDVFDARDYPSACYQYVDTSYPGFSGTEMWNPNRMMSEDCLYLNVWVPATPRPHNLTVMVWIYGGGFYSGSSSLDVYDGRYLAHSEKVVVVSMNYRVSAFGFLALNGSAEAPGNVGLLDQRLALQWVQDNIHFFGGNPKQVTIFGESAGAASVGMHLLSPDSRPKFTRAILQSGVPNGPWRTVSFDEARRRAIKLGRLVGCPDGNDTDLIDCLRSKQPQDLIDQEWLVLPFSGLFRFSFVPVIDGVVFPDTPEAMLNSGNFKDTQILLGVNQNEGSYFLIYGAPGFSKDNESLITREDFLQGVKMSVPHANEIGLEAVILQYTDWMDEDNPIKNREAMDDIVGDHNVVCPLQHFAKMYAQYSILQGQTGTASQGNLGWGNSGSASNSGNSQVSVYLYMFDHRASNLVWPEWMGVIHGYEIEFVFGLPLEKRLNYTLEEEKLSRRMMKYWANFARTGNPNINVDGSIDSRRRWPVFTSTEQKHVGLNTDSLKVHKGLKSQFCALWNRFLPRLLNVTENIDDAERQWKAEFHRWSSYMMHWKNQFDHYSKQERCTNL
UniProt P81908, whole entry: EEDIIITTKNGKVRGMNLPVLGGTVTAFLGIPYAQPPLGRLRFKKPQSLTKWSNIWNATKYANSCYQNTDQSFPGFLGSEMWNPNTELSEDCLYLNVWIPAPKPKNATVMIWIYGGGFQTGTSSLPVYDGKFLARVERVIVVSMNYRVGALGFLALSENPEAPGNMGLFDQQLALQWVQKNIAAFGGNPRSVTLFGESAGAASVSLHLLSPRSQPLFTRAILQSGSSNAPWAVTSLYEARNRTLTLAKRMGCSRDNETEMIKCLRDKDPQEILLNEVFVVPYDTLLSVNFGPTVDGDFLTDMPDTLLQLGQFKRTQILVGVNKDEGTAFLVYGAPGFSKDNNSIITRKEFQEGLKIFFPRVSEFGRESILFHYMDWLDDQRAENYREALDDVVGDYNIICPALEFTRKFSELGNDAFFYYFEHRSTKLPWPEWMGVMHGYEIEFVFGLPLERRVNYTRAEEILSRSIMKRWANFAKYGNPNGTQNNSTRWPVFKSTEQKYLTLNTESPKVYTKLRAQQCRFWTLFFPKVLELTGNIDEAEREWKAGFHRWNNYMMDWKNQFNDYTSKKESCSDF
UniProt P22303, 32-614: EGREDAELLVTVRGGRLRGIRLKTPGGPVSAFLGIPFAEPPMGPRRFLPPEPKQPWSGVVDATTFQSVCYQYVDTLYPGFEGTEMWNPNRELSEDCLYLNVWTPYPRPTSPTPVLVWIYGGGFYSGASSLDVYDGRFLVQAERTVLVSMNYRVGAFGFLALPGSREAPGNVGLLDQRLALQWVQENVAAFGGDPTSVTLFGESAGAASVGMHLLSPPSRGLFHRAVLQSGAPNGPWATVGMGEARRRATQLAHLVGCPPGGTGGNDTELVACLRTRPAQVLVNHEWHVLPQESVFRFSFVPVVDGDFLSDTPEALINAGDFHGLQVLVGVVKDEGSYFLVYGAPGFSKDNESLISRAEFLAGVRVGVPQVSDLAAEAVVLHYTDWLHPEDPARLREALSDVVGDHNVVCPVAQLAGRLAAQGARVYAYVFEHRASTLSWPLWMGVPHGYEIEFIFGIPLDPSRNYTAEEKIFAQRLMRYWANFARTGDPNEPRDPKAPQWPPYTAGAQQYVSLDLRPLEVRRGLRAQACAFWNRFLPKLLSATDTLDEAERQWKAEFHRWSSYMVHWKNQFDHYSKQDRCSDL

Where two headings read alike, the source gives them in different places. A value given as a limit tells only on which side of the number the result lay.

Experiment [1] has as its target T1, electric eel AChE (eeAChE) (Electrophorus electricus, UniProt O42275).
T1 construct: purchased Sigma-Aldrich
The experiment in a line: Cholinesterase inhibition assay (modified Ellman method), eeAChE. The format is biochemical. The settings on record: for Ki: determined for compounds with IC50 < 33 μM, substrate 0.125, 0.25, 0.5 mM, read-out: Enzyme Inhibition eeAChE Ki; for IC50: mean ± SEM of three independent measurements, / = No activity, read-out: Enzyme Inhibition eeAChE IC50. As for the experimental part:
(§1) The activities of the ChEs were determined using a modification of the Ellman method adapted for microtiter plates, as described in [47]. Stock solutions of complexes 4, 5, 6, 7, 8 and 10, as well as of ligands L2 and L3 (1 mg/mL) were prepared in 100% MeOH, whereas stock solutions of complexes 2 and 3 (1 mg/mL) were prepared in 5% DMSO in deionised water. Positive control (1 mg/mL neostigmine bromide; Sigma-Aldrich, St. Louis, MO, USA) was also prepared in 100% MeOH. The stock solutions of the potential inhibitors and the positive and negative controls were added to the wells, and progressively diluted in 100 mM potassium phosphate buffer (pH 7.4) to the final volume of 50 μL. Then, 100 μL acetylthiocholine chloride (1 mM) and 5,5′-dithiobis-2-nitrobenzoic acid (0.5 mM) in 100 mM potassium phosphate buffer (pH 7.4) were added into the microtiter plate wells. Three ChEs were used as the enzyme sources: electric eel AChE (eeAChE); human recombinant AChE (hrAChE), and horse serum BChE (hsBChE) (all Sigma-Aldrich, St. Louis, MO, USA). These were dissolved in the same buffer to the final concentration of 0.0075 U/mL. Finally, 50 μL of each ChE solution was added into the microtiter plate wells to start the reaction, which was followed spectrophotometrically at 405 nm at 25 °C over 5 min using a kinetic microplate reader (Dynex Technologies Inc., Chantilly, VA, USA). The blank reactions without the inhibitors were run with the appropriate dilutions of the solvents in which the tested compounds were initially diluted (100% MeOH or 5% aqueous DMSO), and the readings were corrected according to the appropriate blanks. Each measurement was repeated at least three times. […] The data were analysed using the OriginPro software (OriginPro 2020, OriginLab Corporation, Northampton, MA, USA).

Experiment [2] deals with T2, horse serum BChE (hsBChE) (Equus caballus, UniProt P81908).
T2 construct: horse serum BChE (hsBChE); purchased Sigma-Aldrich; host or cells: horse serum
Put plainly: Cholinesterase inhibition assay (modified Ellman method), hsBChE. Type of experiment: biochemical. The settings on record: for Ki: determined for compounds with IC50 < 33 μM, substrate 0.125, 0.25, 0.5 mM, read-out: Enzyme Inhibition hsBChE Ki; for IC50: mean ± SEM of three independent measurements, / = No activity, read-out: Enzyme Inhibition hsBChE IC50. The method, then:
as §1

Experiment [3] has as its target T3, human recombinant AChE (hrAChE) (Homo sapiens, UniProt P22303).
T3 construct: purchased Sigma-Aldrich
The experiment in a line: Cholinesterase inhibition assay (modified Ellman method), hrAChE. Type of experiment: biochemical. The settings on record: for Ki: determined for compounds with IC50 < 33 μM, substrate 0.125, 0.25, 0.5 mM, read-out: Enzyme Inhibition hrAChE Ki; for IC50: mean ± SEM of three independent measurements, / = No activity, read-out: Enzyme Inhibition hrAChE IC50. The method, then: as §1

The target of experiment [4] is T2, horse serum BChE (hsBChE). The settings on record: previously reported, cited from earlier work.
For experiment [5], the target named is T3, human recombinant AChE (hrAChE). The settings on record: previously reported, cited from earlier work.
The target of experiment [6] is T1, electric eel AChE (eeAChE). The settings on record: previously reported, cited from earlier work.

For the substance [RuCym(L1)Br] [Complex 2], the results for the Ki in experiment [1], in experiment [2] and in experiment [3] were 4.87 µM, 0.63 µM and 2.49 µM, respectively. Besides, the values for the IC50 in experiment [1], in experiment [2] and in experiment [3] were 13.1 ± 2.5 µM, 3.39 ± 2.3 µM and 6.57 ± 4.1 µM, respectively.
Turning to [RuCym(L1)Cl] [Complex 1], the IC50 in experiment [4] (read-out: Enzyme Inhibition hsBChE IC50) was 7.52 ± 1.3 µM; in experiment [5] (read-out: Enzyme Inhibition hrAChE IC50), 25.1 ± 2.5 µM; in experiment [6] (read-out: Enzyme Inhibition eeAChE IC50), 5.01 ± 0.8 µM. For the same substance, the inhibition constant (Ki) in experiment [4] (read-out: Enzyme Inhibition hsBChE Ki) was 4 µM; in experiment [5] (read-out: Enzyme Inhibition hrAChE Ki) it was 24 µM; in experiment [6] (read-out: Enzyme Inhibition eeAChE Ki), 35 µM.
Turning to [RuCym(L1)I] [Complex 3], the figures for the inhibition constant (Ki) in experiment [1], in experiment [2] and in experiment [3] were 1.43 µM, 0.8 µM and 1.94 µM, respectively. For the same substance, the IC50 in experiment [1] was 12.9 ± 2 µM; in experiment [2], 3.48 ± 0.9 µM; in experiment [3], 6.55 ± 4.5 µM.
For [RuCym(L1)pta]PF6 [Complex 6], the IC50 in experiment [1] was greater than 100 µM; in experiment [2] it was 0.39 ± 0.79 µM; in experiment [3] it was greater than 100 µM. For the same substance, the Ki in experiment [2] stood at 1.1 µM.
Turning to “tricarbonyldichlororuthenium(II) dimer [Ru(CO)3Cl2]2 [Precursor 10, reference compound]”, the 50% inhibitory concentration (IC50) in experiment [1], in experiment [2] and in experiment [3] was greater than 100 µM throughout.
